This is an account of results in patent US20020168389A1, “Stable skin conditioning compositions containing retinoid boosters” (priority 2000, published 2002).

The assay has as its system ARAT. The assay can be described thus: Assay for ARAT activity, RPE microsomes (to identify B1). Type of assay: biochemical, bovine. The note with it: 10 μm compound.

As for Dioctyiphosphatidyl Ethanolamine, the “% Inhibition ARAT (10 μm)” value is given as 23%.
